Literature values as cited in patent US20200400567A1, “FUSION POLYPEPTIDE” (PEKING UNIVERSITY, priority 2017, published 2020).

Biological target: T1, human acetylcholine receptor M3R subtype (Homo sapiens, UniProt P20309)
T1 construct: pDisplay N-terminal leader and vector-derived residues (N); expressed in transfected cells; host or cells: HEK293T
Conditions: literature (Jakubik 1997); read-out: Kd of WT-M3R; cited from earlier work

B1: WT-M3R: natural M3 type acetylcholine receptor without cpEGFP insertion (protein)
chain: MTLHNNSTTSPLFPNISSSWIHSPSDAGLPPGTVTHFGSYNVSRAAGNFSSPDGTTDDPLGGHTVWQVVFIAFLTGILALVTIIGNILVIVSFKVNKQLKTVNNYFLLSLACADLIIGVISMNLFTTYIIMNRWALGNLACDLWLAIDYVASNASVMNLLVISFDRYFSITRPLTYRAKRTTKRAGVMIGLAWVISFVLWAPAILFWQYFVGKRTVPPGECFIQFLSEPTITFGTAIAAFYMPVTIMTILYWRIYKETEKRTKELAGLQASGTEAETENFVHPTGSSRSCSSYELQQQSMKRSNRRKYGRCHFWFTTKSWKPSSEQMDQDHSSSDSWNNNDAAASLENSASSDEEDIGSETRAIYSIVLKLPGHSTILNSTKLPSSDNLQVPEEELGMVDLERKADKLQAQKSVDDGGSFPKSFSKLPIQLESAVDTAKTSDVNSSVGKSTATLPLSFKEATLAKRFALKTRSQITKRKRMSLVKEKKAAQTLSAILLAFIITWTPYNIMVLVNTFCDSCIPKTFWNLGYWLCYINSTVNPVCYALCNKTFRTTFKMLLLCQCDKKKRRKQQYQQRQSVIFHKRAPEQAL
Q: With B1 as the molecule, how does the Kd read?
A: 500 to 2000 nM
